Source: ChEMBL document CHEMBL5370599, “Discovery of a 53BP1 Small Molecule Antagonist Using a Focused DNA-Encoded Library Screen” (J Med Chem, 2023)

Test system: TERT-RPE1
Experiment: Induction of DNA repair in human RPE-1 cells assessed as reduction in NHEJ level at 50 uM by pathsig-ddPCR analysis
Type: functional, cell-based

COc1ccc([C@@H](O)c2cc(-c3ncnc4cc(N5CCOCC5)ccc34)c(F)cc2Cl)nn1
Activity: Active

The source made the active and inactive calls. The calls are words filed in the database; no cut-off is given here.
